Only a part is listed here, and it is no random draw. Active and inactive are the calls of the source. Rule as the data show it: active = response mostly above about 7.3% (no sharp cut-off); inactive = mostly below about 5.4%.

The nature of the assay: regulators of yeast V-ATPase proton pumping, primary screen, pHLuorin cytosolic pH fluorescence (AID 504577). Also: actives read high. Conditions: S. cerevisiae, at 10 µM, hits give high values.
In the case of `CCOP1(=S)c2c(C)nn(CCC#N)c2N=C(c2ccc(F)cc2)N1C` (stereo not drawn), the response is inactive: -1.29%.

In the case of `CN(C(=O)Cc1ccccc1)[C@@H]1CC[C@]2(CCCO2)C[C@H]1N1CCCC1`, the response was inactive: 0.95%.

In the case of `CS(=O)(=O)c1cc([N+](=O)[O-])c2no[n+]([O-])c2c1`, the response is inactive: -1.89%.

Turning to `CCOP1(=S)c2c(C)nn(CCC#N)c2N=C(c2ccccc2F)N1C` (stereo not drawn), the response is inactive: -3.77%.

Turning to `O=P(Nc1nccs1)(Oc1ccccc1)Oc1ccccc1`, the response was inactive: 0.15%.

As to `O=P(Nc1nccs1)(c1ccccc1)c1nc2ccccc2s1` (stereo not drawn), the response was inactive: 2.82%.

Turning to `Nc1ccccc1[As](=O)(O)c1ccccc1`, the response was inactive: 2.23%.

With `O=C(O)COc1ccc([As](=O)(O)O)cc1[N+](=O)[O-]`, the response is inactive: -1.47%.

On to `CCCOP(=S)(Nc1nc(N)cc(=O)[nH]1)OCCC`, for which the response is inactive: 1.2%.

Take `Cc1ccc(NCCc2c([N+](=O)[O-])cc([N+](=O)[O-])cc2[N+](=O)[O-])cc1`: the response was inactive: -2.14%.

As for `Nc1cccc2c([As](=O)(O)O)cccc12`, the response is inactive: -2.18%.

On to `COc1cc(C2NCCC3(OCCO3)C2(C)C)cc(OC)c1OC` (stereo not drawn), for which the response is inactive: 0.27%.

In the case of `CCOP(=O)(Nc1cccc2ccccc12)OCC`, the response is inactive: 0.24%.

With `O=[As](O)(O)c1cccnc1`, the response is inactive: -2.17%.

As to `COc1cc(C(=O)NCC2(N3CCOCC3)CCCCC2)cc(Cl)c1OC(C)C`, the response is inactive: -2.65%.

As for `CS(=O)(=O)c1ccc(Cl)c(NC(=O)COC(=O)C(O)(c2ccccc2)c2ccccc2)c1`, the response is inactive: -3.28%.

As for `O=C(OC1CN2CCC1CC2)c1ccc(Cl)cc1` (stereo not drawn), the response was inactive: -4.32%.

For `Cc1cccc(OCC(=O)OC2CN3CCC2CC3)c1` (stereo not drawn), the response is inactive: -0.93%.

For the compound `O=[As](O)(c1cccc(O)c1)c1cccc(O)c1`, the response was inactive: -1.51%.

In the case of `COc1ccc(N/C(=N/P(=O)(N2CCOCC2)N2CCOCC2)N2CCOCC2)cc1`, the response is inactive: -7.64%.

Turning to `O=[N+]([O-])c1cc(Oc2ccc([N+](=O)[O-])cc2C(F)(F)F)cc([N+](=O)[O-])c1`, the response was inactive: -3.37%.

Consider `O=C(OC1CN2CCC1CC2)C12CC3CC(CC(C3)C1)C2` (stereo not drawn), for which the response is inactive: 2.23%.

For `Cc1cc(=O)[nH]c(N[N+](=O)[O-])n1`, the response is inactive: 1.14%.

Take `Cc1c2c(nc3ccccc13)SC(C(Cl)Cl)C2` (stereo not drawn): the response was inactive: 4.62%.

On to `COc1ccc2nc(NP(=O)(c3ccccc3)c3ccccc3)sc2c1`, for which the response was inactive: -1.93%.

With `COc1cc(I)ccc1[As](=O)(O)O`, the response was inactive: -0.72%.

As to `O=P1(N(CCCl)CCCl)Nc2ccccc2N1`, the response was inactive: 1.67%.

With `O=P1(N(CCCl)CCCl)OCCCN1CCCl` (stereo not drawn), the response was inactive: -1.24%.

Consider `COC(=O)C1(C)COP(=O)(N2CCCCCC2)OC1` (stereo not drawn), for which the response was inactive: -1.32%.

With `CC(C)c1ccc(OP(=O)(Nc2ccccn2)Oc2ccccc2F)cc1` (stereo not drawn), the response was inactive: 4.63%.

`ClCCSc1nnc(-c2cccnc2)o1`: the response is inactive: -2.8%.

As to `CC(C)NC(=O)NP(=O)(Oc1ccccc1)Oc1ccccc1`, the response is inactive: -1.26%.

With `CCN(CC)C(=S)SC(NC=O)C(Cl)(Cl)Cl` (stereo not drawn), the response was inactive: 0.4%.

As for `O=C(OC1CN2CCC1CC2)c1cccc2[nH]cnc12` (stereo not drawn), the response is inactive: 5.82%.

For the compound `O=[N+]([O-])c1cc([N+](=O)[O-])c(-c2ccn[nH]2)s1`, the response is inactive: 5.13%.

On to `C[As](=O)(O)c1cccc(C(=O)O)c1`, for which the response was inactive: -0.21%.

`O=[As](O)(c1ccc(O)cc1)c1ccccc1O`: the response is inactive: 1.07%.

As for `O=[N+]([O-])c1ccc(-c2cc([N+](=O)[O-])c(O)c([N+](=O)[O-])c2)cc1`, the response is inactive: -2.73%.

As to `COc1cc(C(=O)NCC2(N3CCOCC3)CCCCC2)ccc1OCC(C)C`, the response is inactive: -6.37%.

In the case of `Cc1ccc2nc3c(c(C)c2c1)CC(C(Cl)Cl)S3` (stereo not drawn), the response is inactive: -2.35%.

As to `Cc1ccc(OP(=O)(Nc2ccc([N+](=O)[O-])cn2)Oc2ccc(C)cc2)cc1`, the response is inactive: 2.66%.

As to `CCOC(=O)Nc1cccc([As](=O)(O)O)c1`, the response is inactive: -0.38%.

As for `O=[N+]([O-])c1ccc(Nc2ccc(Oc3ccc([N+](=O)[O-])cc3[N+](=O)[O-])cc2)c([N+](=O)[O-])c1`, the response was inactive: 0.34%.

`O=P(Nc1ccccn1)(c1cccc2ccccc12)c1cccc2ccccc12`: the response was inactive: -0.14%.

For `Cc1cc(SC(NC=O)C(Cl)(Cl)Cl)ncn1` (stereo not drawn), the response is inactive: -0.51%.

For the compound `CC1CCNP(=O)(N(CCCl)CCCl)O1` (stereo not drawn), the response was inactive: 2.94%.

As to `CCOC(=O)Nc1ccc([As](=O)(O)O)c(O)c1`, the response is inactive: 1.03%.

Consider `O=C(O)C(O)c1ccc(N(CCCl)CCCl)cc1` (stereo not drawn), for which the response was inactive: -1.19%.

In the case of `CCCCOc1ccc(C(=O)NCC2(N3CCCCC3)CCCCC2)cc1OC`, the response is inactive: -1.52%.

Regarding `Cc1cc(SC(NC(=O)c2ccccc2)C(Cl)(Cl)Cl)nc(C(C)C)n1` (stereo not drawn), the response was inactive: -0.5%.

As for `COP(=O)(OC)N1CC1c1ccccc1` (stereo not drawn), the response is inactive: -1.06%.

Regarding `CCOC(=O)c1ccc(NC(=O)C(C)(CCl)SC)cc1` (stereo not drawn), the response is inactive: 0.89%.

On to `O=C(OC1CN2CCC1CC2)c1cccc([N+](=O)[O-])c1` (stereo not drawn), for which the response is inactive: 1.61%.

For the compound `CSc1ccc(Nc2c([N+](=O)[O-])cc([N+](=O)[O-])cc2[N+](=O)[O-])cc1`, the response was inactive: 0.9%.

In the case of `CCC(C)N(CC(C)C)C(=S)SC(NC(C)=O)C(Cl)(Cl)Cl` (stereo not drawn), the response was inactive: 6.47%.

`COP1(=S)c2c(C)nn(CCC#N)c2N=C(c2ccc(F)cc2)N1C` (stereo not drawn): the response was inactive: 0.73%.

Regarding `O=C(COc1ccccc1)OC1CN2CCC1CC2` (stereo not drawn), the response is inactive: 0.36%.

With `O=C(Nc1ccncc1[N+](=O)[O-])c1ccc([N+](=O)[O-])cc1[N+](=O)[O-]`, the response was inactive: 1.16%.

In the case of `O=C(O)C(=O)c1ccc(N(CCCl)CCCl)cc1`, the response is inactive: 3.39%.

As for `Nc1ccc([As](=O)(O)c2ccc(N)cc2)cc1`, the response is inactive: -5.39%.

As for `C[N+]1=C2C=CC=CC=C2SC12C([N+](=O)[O-])=CC([N+](=O)[O-])=C[C-]2[N+](=O)[O-]` (stereo not drawn), the response is inactive: -0.28%.

In the case of `CCN(/C(=N/P(=O)(N1CCOCC1)N1CCOCC1)N1CCOCC1)c1ccc(OC)cc1`, the response is inactive: 2%.

`CC(C)c1nc(Nc2ccccc2)n(P(=O)(N(C)C)N(C)C)n1`: the response is inactive: 1%.

Values taken from PubChem BioAssay AID504577 (NMMLSC, 2011).
